This is an account of results in ChEMBL document CHEMBL1142542, “Synthesis, mechanistic studies, and anti-proliferative activity of glutathione/glutathione S-transferase-activated nitric oxide prodrugs” (Bioorg Med Chem, 2008).

Common to all, as to details: Homo sapiens
Substrate in data set [1]: CCOC(=O)N1CCN(/[N+]([O-])=N/Oc2ccc([N+](=O)[O-])cc2[N+](=O)[O-])CC1
Substrate in data set [2]: CCOC(=O)N1CCCN(/[N+]([O-])=N/Oc2ccc([N+](=O)[O-])cc2[N+](=O)[O-])CC1
Substrate in data set [3]: CCOC(=O)N1CCN(/[N+]([O-])=N/Oc2ccc([N+](=O)[O-])cc2[N+](=O)[O-])CC1
This is another data set of the same source.

Substrate in data set [4]: CCOC(=O)N1CCCN(/[N+]([O-])=N/Oc2ccc([N+](=O)[O-])cc2[N+](=O)[O-])CC1
This is another data set of the same source.

Substrate in data set [5]: CCOC(=O)N1CCN(/[N+]([O-])=N/Oc2ccc([N+](=O)[O-])cc2[N+](=O)[O-])CC1
The source holds these as a separate data set.

Substrate in data set [6]: CCOC(=O)N1CCCN(/[N+]([O-])=N/Oc2ccc([N+](=O)[O-])cc2[N+](=O)[O-])CC1
This is another data set of the same source.

B1: Glutathione S-transferase P (Homo sapiens), P09211 (protein)
chain: MPPYTVVYFPVRGRCAALRMLLADQGQSWKEEVVTVETWQEGSLKASCLYGQLPKFQDGDLTLYQSNTILRHLGRTLGLYGKDQQEAALVDMVNDGVEDLRCKYISLIYTNYEAGKDDYVKALPGQLKPFETLLSQNQGGKTFIVGDQISFADYNLLDLLLIHEVLAPGCLDAFPLLSAYVGRLSARPKLKAFLASPEYVNLPINGNGKQ
The kcat/Km is the second-order rate constant that governs catalysis at low substrate concentration. In the case of B1, the kcat/Km was found to be 1500 M⁻¹ s⁻¹ in data set [1] and 1300 M⁻¹ s⁻¹ in data set [2].

B2: Glutathione S-transferase Mu 1 (Homo sapiens), P09488 (protein)
chain: MPMILGYWDIRGLAHAIRLLLEYTDSSYEEKKYTMGDAPDYDRSQWLNEKFKLGLDFPNLPYLIDGAHKITQSNAILCYIARKHNLCGETEEEKIRVDILENQTMDNHMQLGMICYNPEFEKLKPKYLEELPEKLKLYSEFLGKRPWFAGNKITFVDFLVYDVLDLHRIFEPKCLDAFPNLKDFISRFEGLEKISAYMKSSRFLPRPVFSKMAVWGNK
As to B2, the kcat/Km in data set [3] amounted to 62000 M⁻¹ s⁻¹; in data set [4] it was 42000 M⁻¹ s⁻¹.

B3: Glutathione S-transferase A1 (Homo sapiens), P08263 (protein)
chain: MAEKPKLHYFNARGRMESTRWLLAAAGVEFEEKFIKSAEDLDKLRNDGYLMFQQVPMVEIDGMKLVQTRAILNYIASKYNLYGKDIKERALIDMYIEGIADLGEMILLLPVCPPEEKDAKLALIKEKIKNRYFPAFEKVLKSHGQDYLVGNKLSRADIHLVELLYYVEELDSSLISSFPLLKALKTRISNLPTVKKFLQPGSPRKPPMDEKSLEEARKIFRF
As for B3, the catalytic efficiency (kcat/Km) in data set [5] is 20000 M⁻¹ s⁻¹; in data set [6], 12000 M⁻¹ s⁻¹.
